This is a selection; strong and weak results do not stand in their true shares. Activity calls are given as the source filed them. No stated cut-off is given here; in the data, active means inhibition above about 5% (passing the limit was not always enough); inactive means the rest.
target: Tyrosine-protein kinase ABL1 (Homo sapiens) + Ras and Rab interactor 1 (Homo sapiens) (UniProt P00519+Q13671); assay: inhibitors of Rin1-Abl protein binding, primary screen, biochemical, TR-FRET (AID 588664); details: at 7.35 µM, stronger effect = higher value

Sequences of proteins named here, by UniProt entry; tags and fusion partners are left off.
UniProt P00519, whole entry, looked up: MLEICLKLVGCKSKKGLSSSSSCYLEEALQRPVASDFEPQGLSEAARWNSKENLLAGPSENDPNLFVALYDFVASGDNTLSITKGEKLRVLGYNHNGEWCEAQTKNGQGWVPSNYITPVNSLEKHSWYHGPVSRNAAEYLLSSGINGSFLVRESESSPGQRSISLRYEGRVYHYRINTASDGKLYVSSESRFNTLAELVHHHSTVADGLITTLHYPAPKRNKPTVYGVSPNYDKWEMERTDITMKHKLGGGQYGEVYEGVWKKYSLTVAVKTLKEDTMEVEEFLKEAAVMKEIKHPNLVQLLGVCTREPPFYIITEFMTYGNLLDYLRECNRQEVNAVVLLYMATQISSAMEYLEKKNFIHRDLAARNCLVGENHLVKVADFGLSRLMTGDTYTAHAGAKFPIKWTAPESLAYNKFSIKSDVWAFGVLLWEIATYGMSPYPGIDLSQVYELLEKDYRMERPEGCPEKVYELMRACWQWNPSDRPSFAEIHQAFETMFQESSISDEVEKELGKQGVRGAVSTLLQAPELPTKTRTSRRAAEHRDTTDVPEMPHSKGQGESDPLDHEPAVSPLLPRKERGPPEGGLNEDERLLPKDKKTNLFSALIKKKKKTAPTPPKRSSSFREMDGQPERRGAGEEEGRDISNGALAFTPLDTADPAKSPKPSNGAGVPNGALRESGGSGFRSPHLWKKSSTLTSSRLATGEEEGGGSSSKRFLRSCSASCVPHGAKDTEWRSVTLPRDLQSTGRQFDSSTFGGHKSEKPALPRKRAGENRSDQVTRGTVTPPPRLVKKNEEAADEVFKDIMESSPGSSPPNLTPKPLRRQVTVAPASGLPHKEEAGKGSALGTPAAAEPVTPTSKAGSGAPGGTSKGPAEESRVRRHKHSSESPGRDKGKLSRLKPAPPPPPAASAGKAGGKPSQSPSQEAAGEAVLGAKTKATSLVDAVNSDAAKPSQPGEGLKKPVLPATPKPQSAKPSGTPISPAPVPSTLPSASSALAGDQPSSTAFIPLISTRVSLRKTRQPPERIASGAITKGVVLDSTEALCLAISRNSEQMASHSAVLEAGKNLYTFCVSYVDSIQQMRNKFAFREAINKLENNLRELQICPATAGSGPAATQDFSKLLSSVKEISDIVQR
UniProt Q13671, whole entry, looked up: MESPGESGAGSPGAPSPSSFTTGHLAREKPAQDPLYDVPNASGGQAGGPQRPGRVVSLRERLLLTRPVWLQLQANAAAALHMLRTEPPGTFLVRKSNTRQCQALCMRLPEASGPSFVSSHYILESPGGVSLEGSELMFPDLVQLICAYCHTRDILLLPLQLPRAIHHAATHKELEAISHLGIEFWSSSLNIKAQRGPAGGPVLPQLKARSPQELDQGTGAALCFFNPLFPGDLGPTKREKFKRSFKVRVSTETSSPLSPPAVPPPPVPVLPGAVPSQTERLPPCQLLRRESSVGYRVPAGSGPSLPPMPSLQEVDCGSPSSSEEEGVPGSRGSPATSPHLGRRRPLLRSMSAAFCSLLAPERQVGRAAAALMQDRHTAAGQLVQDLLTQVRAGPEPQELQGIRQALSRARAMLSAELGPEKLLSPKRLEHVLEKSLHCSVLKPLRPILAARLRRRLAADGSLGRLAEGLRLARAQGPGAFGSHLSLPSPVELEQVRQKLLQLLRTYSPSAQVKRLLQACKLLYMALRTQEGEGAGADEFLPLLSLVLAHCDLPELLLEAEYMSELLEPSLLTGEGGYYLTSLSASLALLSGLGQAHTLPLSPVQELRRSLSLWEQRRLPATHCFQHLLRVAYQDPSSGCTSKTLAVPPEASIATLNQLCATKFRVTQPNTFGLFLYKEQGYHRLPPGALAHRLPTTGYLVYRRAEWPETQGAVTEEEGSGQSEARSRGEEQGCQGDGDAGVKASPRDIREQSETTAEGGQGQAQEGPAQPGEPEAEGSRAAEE

Row | SMILES | inhibition
1 | CCC(=O)N(c1ccccc1)C1(COC)CCN(CCc2cccs2)CC1 | inactive: 0.94%
2 | CCC(=O)N(c1ccccc1)C1(COC)CCN(CCn2nnn(CC)c2=O)CC1 | inactive: 1.18%
